Source: PubChem (ICCB-Longwood Screening Facility, Harvard Medical School)
GIV Gai3 FP: inhibitors of GIV GBA-motif binding to rat Galpha-i3; P08753; Galpha-i3/FITC-GIV peptide fluorescence polarization, 90 min; hits give low values; scaled: aluminum fluoride 0%, vehicle 100%; percent of control (FP), % (no concentration beside the values); hit rate 0.42% among 210,000; AID 1224905;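 active = replicate mean at 85% of control or lower, very high polarization wells dropped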;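 note: wells of about 15 µL received 100 nL stock; the first replicate is given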
HCMV NEC inh: inhibitors of HCMV UL50-UL53 interaction, biochemical, HTRF | HCMV UL50-UL53 nuclear egress complex (human cytomegalovirus) | normalized percent inhibition | inhibition, % (test concentration not listed) | 190,000 compounds, 0.15% hits; in the data active = inhibition above about 27%, passing the limit was not always enough
GIV-Gai FP conf: inhibitors of GIV peptide binding to Galpha-i3, confirmation, biochemical, fluorescence polarization, FITC-GIV peptide, rat Galphai3; shares compounds with GIV Gai3 FP; active compounds read low; fluorescence polarization, mP at 100 µM; 580 compounds, 38% hits; AID 1259350, 2017;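 active = inhibition score of 15 or more, meaning 100 minus mean polarization as percent of control over three replicates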;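 note: lower mP means peptide displaced from Galphai3 so more inhibition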
GIV-Gai AS conf: inhibitors of GIV binding to Galpha-i3, confirmation, orthogonal assay for GIV-Galpha-i inhibitor project, biochemical, AlphaScreen, His-GIV, GST-Galphai3; shares compounds with GIV Gai3 FP; purified proteins, 90 min; active compounds read low; AlphaScreen counts at 100 µM; 580 compounds, 39% hits;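 active = inhibition score at or above a set limit, where the score is 100 minus the three-replicate mean percent of control signal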
Active calls of the source: *; . = no result; ! = not active in a repeat. Rows were chosen to be rich in hits. Some 0.43% of all compounds tested hit in one or more screens of this group.

SMILES	GIV Gai3 FP	HCMV NEC inh	others
Cn1cccc1/C=C1\CC/C(=C\c2cccn2C)C1=O	-75*	.
Cc1csc2c(=O)sc(NC(=O)c3cccs3)nc12	103	58*
Cc1csc2c(=O)sc(NC(=O)c3ccco3)nc12	103	33
CCOc1ccc(OCCCN2CCN(C)CC2)cc1	108	8
CCN(CC)c1ccc2cc(C(=O)Nc3ccc(NC(C)=O)cc3)c(=O)oc2c1	83*	-16
CCN(CC)c1ccc2cc(NC(=O)CCC(=O)O)c(=O)oc2c1	84*	-38
CCN(CC)c1ccc2cc(C(=O)NC3CCCCC3)c(=O)oc2c1	.	-24
CCN(CC)c1ccc2cc(C(=O)Nc3cccc(C(F)(F)F)c3)c(=O)oc2c1	102	-5
CSc1ccc(C(=O)Nc2sccc2C#N)cc1	103	-47
CCOC(=O)C1=C(C)N=c2s/c(=C\c3ccc(OC)c(OC)c3)c(=O)n2C1c1ccc(OC)c(OC)c1 (stereo not drawn)	105	-17
CCN(CC)c1ccc(/C=C/c2cc(=O)cc(C)o2)cc1	-61*	-59
CCN(CC)c1ccc(/C=C2/SC(=O)NC2=O)cc1	182	-44
CCOC(=O)c1sc(NC(=O)c2ccc3c(c2)OCCO3)nc1C	100	.
CCOc1ccccc1CNc1ncnc2c1nc1n2CCCCC1	101	.
CCN(CC)c1ccc(C=C2C(=O)OC(c3ccccc3)OC2=O)cc1 (stereo not drawn)	.	9
CCN(CC)c1ccc(C=C2C(=O)OC3(CCCC3)OC2=O)cc1	-26*	4
CN(C)c1ccc(C=C2C(=O)OC(C)(C)OC2=O)cc1	115	-25
CN(C)c1ccc(C=C2C(=O)OC(C)(C(C)(C)C)OC2=O)cc1 (stereo not drawn)	17*	1
O=C(NCc1ccc(F)cc1)N1CCCC1c1ccc(F)cc1 (stereo not drawn)	98	-11
CC/C(C)=N/NS(=O)(=O)c1ccccc1	107	6
Cn1c(=O)c(O)c2c3c(c(Br)ccc31)C(=O)c1ccccc1-2	-29*	.
Cn1c(=O)cc2c3c(c(Br)ccc31)C(=O)c1ccccc1-2	111	.
Cc1cc(C)c(C#N)c(N2CCCC2)n1	109	0
N#Cc1c(N2CCCC2)nc(N)c2c(N)nc(N3CCCC3)cc12	.	97*
CCN(CC)c1ccc(/C=C2\CCc3ccccc3C2=O)cc1	253	.

Ordered by heavy-atom count (ascending): three of the compounds above.
SMILES	GIV Gai3 FP	HCMV NEC inh	others
CCN(CC)c1ccc(/C=C/c2cc(=O)cc(C)o2)cc1	-61*	-59
CCOC(=O)c1sc(NC(=O)c2ccc3c(c2)OCCO3)nc1C	100	.
CCN(CC)c1ccc2cc(C(=O)Nc3ccc(NC(C)=O)cc3)c(=O)oc2c1	83*	-16

Next records follow.
SMILES	GIV Gai3 FP	HCMV NEC inh	others
CN(C)/C=C/C=C1/CCc2ccccc2C1=O	-3.8*	-28
CC(C)CC(=O)Nc1nc(-c2ccccc2)ns1	104	-4
CN1CCN(CCc2nnc3n2CCCCC3)CC1	.	-27
N#C/C(=C\c1ccc(-c2ccccc2)o1)c1ccccc1	137	9
N#C/C(=C\c1ccc(N2CCCC2)o1)c1ccccc1	-49*	-19
Cc1ccc(N=Cc2nc(-c3cccc4ccccc34)oc2O)c(Br)c1	25*	.
COc1cc(-c2nc(C=Nc3ccc(C)cc3Br)c(O)o2)cc(OC)c1OC	110	.
CC(C)(C)C(=O)Nc1ccc(-c2nc3ccc(NC(=O)C(C)(C)C)cc3[nH]2)cc1	100	9
C=CC(=O)Nc1ccc(-c2nc3ccc(NC(=O)C=C)cc3[nH]2)cc1	111	54*
COc1cccc(CNC(=O)C2CCN(c3ncccc3-c3nc(-c4cccc(C)c4)no3)CC2)c1	102	.
Cc1ccc2nc3[nH]c(=O)[nH]c(=O)c3nc2c1	103	.
O=C(Nc1ccc2nc3c(=O)[nH]c(=O)[nH]c3nc2c1)C(F)(F)F	-16*	.
CC(C)c1ccccc1OCC(O)CN1C(C)(C)CC(O)CC1(C)C (stereo not drawn)	.	-8
O=C(O)CN1C(=O)/C(=C\c2ccc(O)cc2)SC1=S	196	-124
CN(C)c1ccc(/C=C2/SC(=S)N(CC(=O)O)C2=O)cc1	-61*	-20
CCCCN(C)C(=O)c1c[nH]c2ccc(S(=O)(=O)Nc3cccc(OC)c3)cc2c1=O	106	.
CCCS(=O)(=O)N1N=C(c2ccc(Cl)cc2)CC1c1ccco1 (stereo not drawn)	182	-6
CCCS(=O)(=O)N1N=C(c2ccc(C)cc2)CC1c1ccco1 (stereo not drawn)	7.4*	-10
NCc1n[nH]c(=S)n1-c1cccc(C(F)(F)F)c1	102	-15
COc1cc(C=C2C(=O)NC(=O)NC2=O)cc(Cl)c1OS(=O)(=O)c1ccccc1	104	60*
COc1cc(C=C2C(=O)NC(=S)NC2=O)cc(Cl)c1OCCOc1cccc(C)c1	111	7
COc1cc(C=C2C(=O)NC(=O)NC2=O)cc(Br)c1OCCOc1ccccc1	105	82*
COc1ccccc1OCCOc1c(Br)cc(C=C2C(=O)N(C)C(=O)N(C)C2=O)cc1OC	106	77*
CCOc1cc(C=C2C(=O)NC(=O)NC2=O)cc(Br)c1OCCOc1ccccc1	108	-15
COc1cc(C=C2C(=O)N(C)C(=O)N(C)C2=O)cc(Br)c1OCCOc1ccccc1	106	-7

Looked up by structure from above:
SMILES	GIV Gai3 FP	HCMV NEC inh	others
CC(C)CC(=O)Nc1nc(-c2ccccc2)ns1	104	-4
COc1cc(C=C2C(=O)NC(=O)NC2=O)cc(Br)c1OCCOc1ccccc1	105	82*
COc1cc(C=C2C(=O)NC(=S)NC2=O)cc(Cl)c1OCCOc1cccc(C)c1	111	7

The main list resumes, repeating the three entries before the break.
SMILES	GIV Gai3 FP	HCMV NEC inh	others
COc1ccccc1OCCOc1c(Br)cc(C=C2C(=O)N(C)C(=O)N(C)C2=O)cc1OC	106	77*
CCOc1cc(C=C2C(=O)NC(=O)NC2=O)cc(Br)c1OCCOc1ccccc1	108	-15
COc1cc(C=C2C(=O)N(C)C(=O)N(C)C2=O)cc(Br)c1OCCOc1ccccc1	106	-7
O=S(=O)(NCCc1n[nH]c(Cc2ccccc2)n1)c1cc(F)cc(F)c1	95	.
CC(C)c1cc(=O)c2c(=O)n(-c3ccccc3)[nH]c2[nH]1	105	-17
CCN(CC)CCNS(=O)(=O)c1cc(-c2cc(C)[nH]n2)sc1C	104	.
COC1=CC(=O)c2ccccc2C1=O	97	101*
CN(C1=CC(=O)c2ccccc2C1=O)c1ccccc1	.	51
CC(COc1ccccc1)N(CCCl)Cc1ccccc1 (stereo not drawn)	99	89*!
CC(C)NCC(O)COc1ccccc1 (stereo not drawn)	104	25
O=c1n(Cc2cc(F)cc(F)c2)nc2c(S(=O)(=O)N3CCOCC3)cccn12	100	.
C=CC(=O)Nc1cccc(Oc2nc(Nc3ccc(N4CCN(C)CC4)cc3OC)ncc2Cl)c1	.	49
C=CC(=O)Nc1cccc(Oc2cc(Cl)nc3[nH]ccc23)c1	.	34*
Cc1cc2c(=O)[nH]nc(N)c2c(=O)[nH]1	105	-22
Nc1n[nH]c2cc(=O)[nH]c(O)c12	48*	110*	GIV-Gai FP conf=45*;GIV-Gai AS conf=7988*
O=C(Cn1c(=O)n2nc(-c3ccc(F)cc3)nc2c2ccccc21)c1ccccc1Cl	101	.
Cc1ccc(CN2CCN(C3CCN(C(=O)CC4CCCCC4)CC3)C(=O)C2=O)cc1	98	-13
CCOC(=O)c1c(C)n(OCc2ccccc2)c2ccc3nonc3c12	99	.
c1ccc(COn2c3c(c4c5nonc5ccc42)CCCC3)cc1	52*	-34	GIV-Gai FP conf=49*;GIV-Gai AS conf=18180*
C=CCn1c(SCc2c(C)noc2C)nc2scc(-c3cccs3)c2c1=O	.	-30
CC1CC(C)CN(CC2CCN(C(=O)Nc3ccc4c(c3)OCCO4)CC2)C1 (stereo not drawn)	99	.
